# Assay results as given in US9102669B2, “Substituted piperidinyl-pyridazinyl derivatives useful as SCD 1 inhibitors” (Janssen Pharmaceutica NV, priority 2011, dated 2015).
# The chains behind the UniProt entries cited, without tags or fusion partners.
# UniProt O00767, whole entry: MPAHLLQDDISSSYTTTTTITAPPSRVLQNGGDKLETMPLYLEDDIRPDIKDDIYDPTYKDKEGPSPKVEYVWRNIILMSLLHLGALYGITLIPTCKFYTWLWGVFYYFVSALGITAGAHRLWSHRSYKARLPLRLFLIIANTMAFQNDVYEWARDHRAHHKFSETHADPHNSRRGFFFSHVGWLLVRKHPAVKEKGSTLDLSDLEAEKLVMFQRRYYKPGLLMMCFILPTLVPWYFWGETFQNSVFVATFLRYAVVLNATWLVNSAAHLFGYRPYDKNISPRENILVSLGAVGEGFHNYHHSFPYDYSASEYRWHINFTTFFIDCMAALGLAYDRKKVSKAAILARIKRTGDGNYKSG
# UniProt P07308, whole entry: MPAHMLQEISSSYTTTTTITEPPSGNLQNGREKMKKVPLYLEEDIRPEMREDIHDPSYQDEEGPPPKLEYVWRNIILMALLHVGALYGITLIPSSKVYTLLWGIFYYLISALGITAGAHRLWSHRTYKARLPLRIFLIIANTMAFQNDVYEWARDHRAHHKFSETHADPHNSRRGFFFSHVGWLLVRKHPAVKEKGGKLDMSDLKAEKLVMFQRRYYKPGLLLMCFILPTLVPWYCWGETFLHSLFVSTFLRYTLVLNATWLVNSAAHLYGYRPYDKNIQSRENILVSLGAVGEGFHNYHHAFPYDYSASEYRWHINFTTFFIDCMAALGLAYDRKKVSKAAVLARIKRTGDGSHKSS
# Read-outs that look alike come from different tables or passages of the source.
# What was measured:
# SCD1 [1] = target: T1, SCD1 (Homo sapiens (Human), UniProt O00767); assay: SCD1 14C-palmitate assay in A431 cells; assay type: cell-based; details: read-out: A431 cells 14C-PA IC50
# SCD1 [2] = target: SCD1 (Rattus norvegicus (Rat), UniProt P07308); assay: SCD1 enzymatic assay in rat liver microsomes (RLM); assay type: biochemical
# SCD1 [3] = target: T1, SCD1; assay: SCD1 13C-palmitic acid assay in A431 cells; assay type: cell-based; details: read-out: A431 cells 13C-PA IC50
SMILES,IC50 (SCD1 [1]) [nM],"% Inh.@ 1 μM (SCD1 [2]; 1 μM test compound, rat liver microsomes) [%]",IC50 (SCD1 [2]; rat liver microsomes) [nM],IC50 (SCD1 [3]) [nM],% Inh.@ 1 μM (SCD1 [2]) [%],IC50 (SCD1 [2]) [nM]
OCc1cn(-c2ccc(N3CCC(c4noc5ccc(F)cc45)CC3)nn2)cn1,40,96,52,–,–,–
COc1ccc(-c2ccc(N3CCC(c4noc5ccc(F)cc45)CC3)nn2)cn1,–,–,–,4,100,7
